Like-named read-outs stand apart in the source and are kept apart here.
Key:
[1] = target: PKMYT1 enzyme (Homo sapiens, UniProt Q99640); assay: PKMYT1 enzyme inhibition activity, ADP-GLO method; assay type: biochemical; settings: read-out: ADP-GLO IC50, PKMYT1 enzyme 10 nM, ATP 5 µM, 37°C 90 minutes
[2] = tested on: HCC1569 cells; assay: Cytostatic activity, CTG assay (HCC1569); settings: 5 days
[3] = tested form: free base, mixture of the atropisomers s
[4] = tested form: free base, single atropisomer, dextrorot

Protein sequences, listed by entry. Tags and fused reporters are not part of them.
UniProt Q99640, whole entry: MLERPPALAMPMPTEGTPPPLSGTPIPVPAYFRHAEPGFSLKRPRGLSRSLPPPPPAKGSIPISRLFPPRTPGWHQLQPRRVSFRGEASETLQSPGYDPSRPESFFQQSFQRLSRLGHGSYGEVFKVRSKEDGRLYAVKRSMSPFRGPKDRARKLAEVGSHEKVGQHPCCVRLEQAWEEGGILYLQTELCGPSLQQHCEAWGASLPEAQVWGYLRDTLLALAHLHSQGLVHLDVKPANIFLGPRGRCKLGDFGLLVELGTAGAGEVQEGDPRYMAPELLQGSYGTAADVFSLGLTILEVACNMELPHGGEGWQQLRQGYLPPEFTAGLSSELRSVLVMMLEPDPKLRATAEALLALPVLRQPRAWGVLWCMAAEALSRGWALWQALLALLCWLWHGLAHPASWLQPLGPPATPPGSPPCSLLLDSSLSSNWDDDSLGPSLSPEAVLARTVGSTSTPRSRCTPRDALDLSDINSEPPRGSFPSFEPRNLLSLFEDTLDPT

Row | SMILES | IC50 [1] [nM] | IC50 ([1]; tested form: free base) [nM] | other results
1 | Cc1ccc(O)c(C)c1-n1c(N)c(C(N)=O)c2cc(NS(=O)(=O)N(C)C)c(C)nc21 |  |  | IC50 ([1]; tested form: free base, axial configuration not given): 12.6 nM
2 | Cc1nc2c(cc1-c1ccnn1C)c(C(N)=O)c(N)n2-c1c(C)c(O)cc(F)c1C | 26.4 |  | IC50 [2]: 65 nM
3 | COc1cnc2c(c1)c(C(N)=O)c(N)n2-c1c(C)c(O)cc(F)c1C | 1.94 |  | IC50 [2]: 42 nM
4 | [2H]C([2H])([2H])c1cc2c(C(N)=O)c(N)n(-c3c(C)cc(F)c(O)c3C)c2nc1C |  | 4.42 | 
5 | Cc1nc2c(cc1-c1cncs1)c(C(N)=O)c(N)n2-c1c(C)c(O)cc(F)c1C |  | 7.37 | IC50 ([2]; tested form: free base): 19 nM
6 | Cc1nc2c(cc1Cl)c(C(N)=O)c(N)n2-c1c(C)c(O)cc(F)c1C |  |  | IC50 [2, 3]: 23 nM; IC50 [2, 4]: 15 nM; IC50 [1, 3]: 3.02 nM; IC50 [1, 4]: 1.78 nM; IC50 ([1]; tested form: free base, single atropisomer, levorotat): 184 nM
7 | Cc1nc2c(cc1-c1ccccc1)c(C(N)=O)c(N)n2-c1c(C)c(O)cc(F)c1C | 31.4 |  | 
8 | C=Cc1cnc2c(c1)c(C(N)=O)c(N)n2-c1c(C)c(O)cc(F)c1C | 3.71 |  | IC50 [2]: 24 nM
9 | [2H]C([2H])([2H])c1cc(F)c(O)c(C([2H])([2H])[2H])c1-n1c(N)c(C(N)=O)c2cc(Br)c(C([2H])([2H])[2H])nc21 |  | 4.7 | 

Continued, in another order:

Row | IC50 [1] [nM] | IC50 ([1]; tested form: free base) [nM] | SMILES | other results
10 |  | 214 | Cc1cc(F)c(O)c(C)c1-n1c(N)c(C(N)=O)c2c(C)c3c(nc21)CCC3 | 
11 |  | 12.8 | Cc1cc(F)c(O)c(C)c1-n1c(N)c(C(N)=O)c2cc(F)c(C)nc21 | 
12 |  | 12.5 | [2H]C([2H])([2H])c1nc2c(cc1C(F)(F)F)c(C(N)=O)c(N)n2-c1c(C)cc(F)c(O)c1C([2H])([2H])[2H] | 
13 |  | 2.86 | [2H]C([2H])([2H])c1nc2c(cc1Br)c(C(N)=O)c(N)n2-c1c(C)cc(F)c(O)c1C | IC50 ([1]; tested form: free base, (+)-atropisomer): 1.8 nM
14 | 172 |  | Cc1cc2c(C(N)=O)c(N)n(-c3c(C)c(O)cc(F)c3C)c2nc1C1CC1 | 

Reference: patent EP4624471A1, “PKMYT1 INHIBITOR, PREPARATION METHOD THEREFOR, AND PHARMACEUTICAL COMPOSITION AND USE THEREOF” (Shanghai Qilu Pharmaceutical Research and Development …, priority 2022, dated 2024)
